# In patent US20210379046A1, “Methods of Treating Diseases Using Kinase Modulators” (Memorial Sloan Kettering Cancer Center, priority 2018, published 2021):
# Tests used:
# H2228 cells = assay: Flow cytometry of cell surface HLA on EML4-ALK cell line H2228; format: cell-based, human; details: H2228, 100 nM
# Method: If adherent cells, they were seeded one day before treatment.
# pERK in A498 cells = assay: pERK in A498 cells; format: cell-based, human
# Method: Cells were seeded in a 60 mm dish or 6 well plates. After the appropriate time point, cells were harvested and lysed and protein was quantified by a Lowry assay (Bio-Rad DC Protein Assay; #5000116). Protein levels were normalized and run on SDS PAGE gels (Bio-Rad). Protein was transferred to a nitrocellulose membrane using semi-dry transfer. Membrane was blocked and incubated with respective antibodies. When needed, secondary antibodies with HRP were incubated for 1 hr. Enhanced chemiluminescent substrate for HRP enzymes was used to image protein levels (Thermo-Fischer; #34095).
# Experiments in this Example were performed as described in Section 6.1.2.
Compound,surface HLA levels (H2228 cells),surface HLA levels (H2228 cells; listed as Crizotinib),pERK (pERK in A498 cells)
C[C@@H](Oc1cc(-c2cnn(C3CCNCC3)c2)cnc1N)c1c(Cl)ccc(F)c1Cl [crizotinib],cell surface HLA levels did not change either,no increase in surface HLA was seen,–
"trastuzumab: an ERBB2 inhibitor, from Genentech",–,–,not A498 cells
